# In publication PMC2859821 (Molecular pharmaceutics, 2009):
# How the values were obtained:
# [1] = tested on: HeLa cells; conditions: previously determined; cited from earlier work
# [2] = tested on: HeLa cells
# [3] = tested on: HeLa cells; remark: listed apart in the source
Substance,active uptake at 40 min relative to saturation level [1],reduction of cell-associated fluorescence by KPBS [2],"total cell-associated fluorescence in cells incubated with KPBS, relative to control cells incubated with PBS [2]",effect of MDC on diffuse and punctate fluorescence [3],effect of cell energy-depletion on intracellular fluorescence [3],intracellular fluorescence pattern in KPBS [3],concentration at which diffuse (cytosolic/nuclear) fluorescence predominated ([3]; pH 7.4),concentration at which punctate (vesicular) fluorescence predominated ([3]; pH 7.4),effect of NH4Cl on diffused fluorescence [3],effect of NH4Cl on punctate fluorescence [3],effect of hypertonic sucrose on punctate and diffused fluorescence [3]
5(6)-Carboxyfluorescein-R.I.-CKTat9 [Flu-R.I.-CKTat9],greater than half of its saturation level,more than 90%,44.9%,both types of fluorescence are greatly reduced,virtually abolished both the punctate and diffuse fluorescence,only green punctate fluorescence,above 7 μM,below 3 μM,–,–,–
rhodamine-R.I.-CKTat9 [Rho-R.I.-CKTat9],–,–,–,–,–,–,–,–,completely abolished,had no effect,greatly reduced
